From patent publication US9115117B2, “Substituted piperidine compounds and their use as orexin receptor modulators” (JANSSEN PHARMACEUTICA NV, priority 2013, dated 2015)

Chains of the proteins cited; added tags and fusions are not shown.
UniProt O43614, whole entry: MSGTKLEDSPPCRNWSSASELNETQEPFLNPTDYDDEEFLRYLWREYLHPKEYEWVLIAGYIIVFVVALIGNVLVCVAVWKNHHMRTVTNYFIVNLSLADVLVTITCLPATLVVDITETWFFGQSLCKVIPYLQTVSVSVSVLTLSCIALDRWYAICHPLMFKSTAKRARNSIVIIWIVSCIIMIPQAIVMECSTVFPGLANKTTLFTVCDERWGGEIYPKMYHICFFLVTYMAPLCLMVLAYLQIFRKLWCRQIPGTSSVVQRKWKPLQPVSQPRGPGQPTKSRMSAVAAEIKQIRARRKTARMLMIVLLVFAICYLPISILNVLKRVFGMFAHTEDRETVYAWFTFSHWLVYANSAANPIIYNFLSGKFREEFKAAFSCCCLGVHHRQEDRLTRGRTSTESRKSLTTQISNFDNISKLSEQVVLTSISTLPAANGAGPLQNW

Columns and labels:
[1] = target: rat orexin 1 receptor (Rattus norvegicus, UniProt P56718); assay: Rat orexin 1 receptor radioligand binding; details: HEK293 cells stably expressing rat orexin 1 receptor; apparent Ki; read-out: rOX1 Ki
Method: After centrifugation (2K×G, 5 min at 4° C.), the supernatant was aspirated and the pellets frozen and stored at −80° C. […] Each cell pellet from a 15 cm plate was resuspended in 10 mL, stored on ice, and homogenized for 45 sec prior to addition to the reactions. Competition binding experiments in 96 well polypropylene plates were performed using [^3H]-(1-(5-(2-fluoro-phenyl)-2-methyl-thiazol-4-yl)-1-((S)-2-(5-phenyl-(1,3,4)oxadiazol-2-ylmethyl)-pyrrolidin-1-yl)-methanone) (Moraveck Corporation, specific activity=35.3 Ci/mmol), diluted to a 10 nM concentration in PBS (4 nM final). […] The final concentration of DMSO in the reactions is equal to or less than 0.1%. Total and nonspecific binding was determined in the absence and presence of 10 μM almorexant. The total volume of each reaction is 200 μL (20 μL of diluted compounds, 80 μL of [3H]-(1-(5-(2-fluoro-phenyl)-2-methyl-thiazol-4-yl)-1-((S)-2-(5-phenyl-(1,3,4)oxadiazol-2-ylmethyl)-pyrrolidin-1-yl)-methanone) diluted in PBS and 100 μL of the cell suspension). […] The plates were washed 3 times by aspirating 30 ml PBS through the plates. Plates were dried in 55° C. oven for 60 min, scintillation fluid was added, and the radioactivity was counted on a Topcount (Packard).

[2] = target: human orexin 1 receptor (Homo sapiens, UniProt O43613); assay: Human orexin 1 receptor radioligand binding; details: CHO cells stably expressing human orexin 1 receptor; apparent Ki; read-out: hOX1 Ki
Method: The in vitro affinity of the compounds of the invention for the rat/human orexin 1 and human orexin 2 receptors was determined by competitive radioligand binding using [^3H](1-(5-(2-fluoro-phenyl)-2-methyl-thiazol-4-yl)-1-((S)-2-(5-phenyl-(1,3,4)oxadiazol-2-ylmethyl)-pyrrolidin-1-yl)-methanone)(Langmead et al., 2004) and [^3H]EMPA (n-ethyl-2[96-methoxy-pyridin-3-yl)-(toluene-2-sulfonyl)-amino]-N-pyridin-3-ylmethyl acetamide), respectively (Langmead et al., 2004, British Journal of Pharmacology 141:340-346; Malherbe et al., 2004, British Journal of Pharmacology 156:1326-41).
Human Embryonic Kidney 293 cells (HEK293) stably expressing rat orexin 1 receptor (Genebank accession number NM_001525) or Chinese ovary cells (CHO) stably expressing human orexin 1 receptor (Genebank accession number NM_001526) were grown to confluency in DMEM (Hyclone, cat #SH30022), 10% FBS, 1× Pen/Strep, 1× sodium pyruvate, 10 mM HEPES, 600 µg/mL G418 and DMEM/F12 (Gibco, Cat #11039), 10% FBS, 1× Pen/Strep, 600 µg/mL G418 media, respectively on 150 cm^2 tissue culture plates, washed with 5 mM EDTA in PBS (HyClone Dulbecco's Phoshpate Buffered Saline 1× with Calcium and Magnesium, Cat #SH30264.01, hereafter referred to simply as PBS) and scraped into 50 ml tubes. After centrifugation (2K×G, 5 min at 4° C.), the supernatant was aspirated and the pellets frozen and stored at −80° C. Cells were resuspended in PBS in the presence of 1 tablet of protease inhibitor cocktail (Roche, Cat. #11836145001) per 50 mL. Each cell pellet from a 15 cm plate was resuspended in 10 mL, stored on ice, and homogenized for 45 sec prior to addition to the reactions. Competition binding experiments in 96 well polypropylene plates were performed using [^3H]-(1-(5-(2-fluoro-phenyl)-2-methyl-thiazol-4-yl)-1-((S)-2-(5-phenyl-(1,3,4)oxadiazol-2-ylmethyl)-pyrrolidin-1-yl)-methanone) (Moraveck Corporation, specific activity=35.3 Ci/mmol), diluted to a 10 nM concentration in PBS (4 nM final). Compounds were solubilized in 100% DMSO (Acros Organics, Cat. #61042-1000) and tested over a range of 7 concentrations (from 0.1 nM to 10 μM). The final concentration of DMSO in the reactions is equal to or less than 0.1%. Total and nonspecific binding was determined in the absence and presence of 10 μM almorexant. The total volume of each reaction is 200 μL (20 μL of diluted compounds, 80 μL of [3H]-(1-(5-(2-fluoro-phenyl)-2-methyl-thiazol-4-yl)-1-((S)-2-(5-phenyl-(1,3,4)oxadiazol-2-ylmethyl)-pyrrolidin-1-yl)-methanone) diluted in PBS and 100 μL of the cell suspension). Reactions were run for 60 min at room temperature and terminated by filtration through GF/C filter plates (PerkinElmer, Cat. #6005174) presoaked in 0.3% polyethylenimine using the cell harvester (PerkinElmer Filtermate). The plates were washed 3 times by aspirating 30 ml PBS through the plates. Plates were dried in 55° C. oven for 60 min, scintillation fluid was added, and the radioactivity was counted on a Topcount (Packard).

[3] = target: human orexin 2 receptor (Homo sapiens (Human), UniProt O43614); assay: Human orexin 2 receptor radioligand binding ([3H]-EMPA); details: HEK293 stably expressing human orexin 2 receptor, apparent Ki, read-out: hOX2 Ki
Method: After centrifugation (2K×G, 5 min at 4° C.), the supernatant was aspirated and the pellets frozen and stored at −80° C. […] Each cell pellet from a 15 cm plate was resuspended in 10 mL, stored on ice, and homogenized for 45 sec just prior to addition to the reactions. Competition binding experiments in 96 well polypropylene plates were performed using [^3H]-EMPA (Moraveck Corporation, specific activity=29.6 Ci/mmol), diluted to a 5 nM concentration in PBS (2 nM final concentration). […] The final concentration of DMSO in the reactions is equal to or less than 0.1%. Total and nonspecific binding was determined in the absence and presence of […]. The total volume of each reaction is 200 μL (20 μL of diluted compounds, 80 μL of [^3H]-EMPA diluted in PBS and 100 μL of the cell suspension).
The plates were washed 3 times by aspirating 30 ml PBS through the plates. Plates were dried in 55° C. oven for 60 min, scintillation fluid was added, and the radioactivity was counted on a Topcount (Packard).

| Compound | Ki [1] | Ki [2] | Ki [3] |
| --- | --- | --- | --- |
| C[C@H]1[C@H](Nc2ccc(C(F)(F)F)cn2)CCCN1C(=O)c1ccccc1-n1nccn1 (racemic) [Example 12, (±)-trans-(2-(2H-1,2,3-triazol-2-yl)phenyl)(2-methyl-3-((5-(trifluoromethyl)pyridin-2-yl)amino)piperidin-1-yl)methanone] | 14 nM | 11 nM | 332 nM |
| C[C@H]1[C@H](Nc2ncc(C(F)(F)F)cn2)CCCN1C(=O)c1ccccc1-n1nccn1 (racemic) [Example 35, (±)-trans-(2-(2H-1,2,3-triazol-2-yl)phenyl)(2-methyl-3-((5-(trifluoromethyl)pyrimidin-2-yl)amino)piperidin-1-yl)methanone] | 20 nM | – | 738 nM |
| C[C@H]1[C@H](Nc2nc3ccccc3o2)CCCN1C(=O)c1ccccc1-n1nccn1 (racemic) [Example 41, (±)-trans-(2-(2H-1,2,3-triazol-2-yl)phenyl)(3-(benzo[d]oxazol-2-ylamino)-2-methylpiperidin-1-ylmethanone] | 9 nM | 9 nM | 284 nM |
| CCOc1ccccc1C(=O)N1CCC[C@@H](Nc2cnc3ccccc3n2)[C@@H]1C (racemic) [Example 49, (±)-trans-(2-ethoxyphenyl)(2-methyl-3-(quinoxalin-2-ylamino)piperidin-1-yl)methanone] | 95 nM | 70 nM | 89 nM |
| C[C@@H]1[C@H](Nc2ccc(C(F)(F)F)cn2)CCCN1C(=O)c1ccccc1-n1nccn1 (racemic) [Example 56, (±)-cis-(2-(2H-1,2,3-triazol-2-yl)phenyl)(2-methyl-3-((5-(trifluoromethyl)pyridin-2-yl)amino)piperidin-1-yl)methanone] | 128 nM | 112 nM | 3600 nM |
| CCOc1ccccc1C(=O)N1CCC[C@@H](Nc2cnc3ccccc3n2)[C@H]1C (racemic) [Example 65, (±)-cis-(2-ethoxyphenyl)(2-methyl-3-(quinoxalin-2-ylamino)piperidin-1-yl)methanone] | 314 nM | – | 295 nM |
